Laboratory results: patent US4992421A, “Luteinizing hormone releasing hormone antagonist” (priority 1988, dated 1991)
pKi: −log10 of the molar value.

Chains of the proteins cited; added tags and fusions are not shown.
UniProt P30969, whole entry: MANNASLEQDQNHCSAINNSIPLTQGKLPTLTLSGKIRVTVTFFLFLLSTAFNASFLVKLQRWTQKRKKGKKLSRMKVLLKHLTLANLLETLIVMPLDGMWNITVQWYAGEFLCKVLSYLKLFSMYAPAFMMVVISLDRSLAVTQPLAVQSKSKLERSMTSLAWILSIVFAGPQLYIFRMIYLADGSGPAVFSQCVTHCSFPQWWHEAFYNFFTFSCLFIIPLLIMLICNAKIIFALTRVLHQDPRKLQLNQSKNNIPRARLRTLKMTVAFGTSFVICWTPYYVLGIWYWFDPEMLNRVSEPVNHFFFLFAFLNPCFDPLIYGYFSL

These compounds were tested against LHRH receptors (rat pituitary membranes) (Rattus norvegicus, UniProt P30969) (assay: LHRH radioligand receptor binding assay). Settings: read-out: LHRH RECEPTOR BINDING AFFINITY KI, radioiodinated [D-Leu6-des Gly10]-LHRH ethyl amide 50 pM, 2 hours at 4° C.
Experimental: Receptor Binding. A radioligand receptor binding assay is performed in a similar way to that described in the literature (J. Marion et al., Mol. Pharmacol. 19 399 (1981)). [D-Leu^6 -des Gly^10 ]-LHRH ethyl amide was radioiodinated by the chloramine-T method and used as the radioligand. Pituitary membranes containing LHRH receptors are prepared in batches from quick-frozen rat pituitaries obtained from Hilltop Labs. The radioligand (50 pM), receptors, and compounds to be tested are coincubated for 2 hours at 4° C. Bound ligand is separated from free ligand via centrifugation and aspiration. Compounds are tested at six half-log concentration increments, and the equilibrium dissociation constant (KI) is calculated from the concentration which displaces 50% of specifically bound radioligand.

Row | Compound | pKi
1 | CC(C)(C)OC(=O)N[C@@H](Cc1c[nH]c2ccccc12)C(=O)N1CCC[C@H]1C(=O)N[C@@H](Cc1c[nH]cn1)C(=O)NCC1COC(Cn2ccnc2)(c2ccc(Cl)cc2Cl)O1 (stereo partly shown) | 6.30
2 | O=C1CC[C@@H](C(=O)N[C@@H](Cc2c[nH]cn2)C(=O)NCC2COC(Cn3ccnc3)(c3ccc(Cl)cc3Cl)O2)N1 (stereo partly shown) | 5.00
3 | O=C(NCC1COC(Cn2ccnc2)(c2ccc(Cl)cc2Cl)O1)[C@@H]1CCC(=O)N1C(=O)OCc1ccccc1 (stereo partly shown) | 4.51
4 | O=C1CCC(C(=O)NC(Cc2cnc[nH]2)C(=O)NC(Cc2c[nH]c3ccccc23)C(=O)NCC2COC(Cn3ccnc3)(c3ccc(Cl)cc3Cl)O2)N1 (stereo not shown) | 5.70
5 | O=C(N[C@@H](Cc1ccccc1)C(=O)N1CCC[C@H]1C(=O)N[C@@H](Cc1c[nH]cn1)C(=O)NCC1COC(Cn2ccnc2)(c2ccc(Cl)cc2Cl)O1)OCc1ccccc1 (stereo partly shown) | 6.01
6 | O=C(NCC1COC(Cn2ccnc2)(c2ccc(Cl)cc2Cl)O1)[C@H](Cc1c[nH]cn1)NC(=O)[C@@H]1CCCN1C(=O)OCc1ccccc1 (stereo partly shown) | 5.95
7 | O=C(NCC1COC(Cn2ccnc2)(c2ccc(Cl)cc2Cl)O1)[C@H](Cc1c[nH]cn1)NC(=O)[C@@H]1CCC(=O)N1C(=O)OCc1ccccc1 (stereo partly shown) | 5.72

Same assay, conditions: read-out: LHRH RECEPTOR BINDING AFFINITY KI, radioiodinated [D-Leu6-des Gly10]-LHRH ethyl amide 50 pM, 2 hours at 4° C., tested form: 2HCl

Row | Compound | pKi
8 | N[C@@H](Cc1c[nH]c2ccccc12)C(=O)NCC1COC(Cn2ccnc2)(c2ccc(Cl)cc2Cl)O1 (stereo partly shown) | 5.00

Same assay, conditions: read-out: LHRH RECEPTOR BINDING AFFINITY KI, radioiodinated [D-Leu6-des Gly10]-LHRH ethyl amide 50 pM, 2 hours at 4° C., tested form: TFA

Row | Compound | pKi
9 | N[C@@H](CO)C(=O)N[C@@H](Cc1c[nH]c2ccccc12)C(=O)NCC1COC(Cn2ccnc2)(c2ccc(Cl)cc2Cl)O1 (stereo partly shown) | 5.32
10 | O=C(NCC1COC(Cn2ccnc2)(c2ccc(Cl)cc2Cl)O1)[C@H](Cc1c[nH]cn1)NC(=O)[C@@H]1CCCN1C(=O)OCC(c1ccccc1)c1ccccc1 (stereo partly shown) | 6.32
